Assay results as given in patent US20230024302A1 (published 2023).
pIC50: −log10 of the molar value.

Protein sequences, listed by entry. Tags and fused reporters are not part of them. Lines headed by an entry give the natural chain unless they say otherwise; changes in a name come on top.
UniProt P48736: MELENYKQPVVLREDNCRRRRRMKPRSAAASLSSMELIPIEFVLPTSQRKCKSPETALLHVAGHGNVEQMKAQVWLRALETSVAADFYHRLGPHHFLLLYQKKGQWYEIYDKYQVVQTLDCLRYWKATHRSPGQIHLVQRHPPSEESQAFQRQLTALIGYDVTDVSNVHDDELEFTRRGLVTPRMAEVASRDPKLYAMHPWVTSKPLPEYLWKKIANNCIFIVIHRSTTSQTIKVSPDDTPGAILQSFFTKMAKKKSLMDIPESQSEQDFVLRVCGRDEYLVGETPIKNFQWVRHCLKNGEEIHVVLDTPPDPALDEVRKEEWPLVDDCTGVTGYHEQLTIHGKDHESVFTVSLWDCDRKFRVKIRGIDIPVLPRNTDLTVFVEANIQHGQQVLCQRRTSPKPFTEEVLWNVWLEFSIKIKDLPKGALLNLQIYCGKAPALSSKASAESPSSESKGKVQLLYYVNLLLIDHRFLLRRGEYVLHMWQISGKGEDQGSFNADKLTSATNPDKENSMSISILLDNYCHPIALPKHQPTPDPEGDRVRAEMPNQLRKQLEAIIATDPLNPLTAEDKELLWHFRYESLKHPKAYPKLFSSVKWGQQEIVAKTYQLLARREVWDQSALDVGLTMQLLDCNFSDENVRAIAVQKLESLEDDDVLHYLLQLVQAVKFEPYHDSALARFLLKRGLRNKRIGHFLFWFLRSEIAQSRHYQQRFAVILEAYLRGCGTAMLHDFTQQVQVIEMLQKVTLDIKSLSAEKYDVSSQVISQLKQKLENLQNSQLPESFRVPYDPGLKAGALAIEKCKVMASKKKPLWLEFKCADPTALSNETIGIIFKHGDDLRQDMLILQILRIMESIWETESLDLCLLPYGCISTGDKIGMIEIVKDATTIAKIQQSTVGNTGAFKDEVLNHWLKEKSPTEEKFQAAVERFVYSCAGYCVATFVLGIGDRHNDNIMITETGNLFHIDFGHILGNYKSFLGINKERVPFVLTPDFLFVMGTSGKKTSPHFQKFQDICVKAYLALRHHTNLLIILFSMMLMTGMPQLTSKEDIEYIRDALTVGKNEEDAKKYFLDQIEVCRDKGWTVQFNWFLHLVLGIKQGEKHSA

Biological target: PI3Kγ (p120γ) (Homo sapiens, UniProt P48736)
Experiment: Inhibition of PI3K kinase activity (ADP Glo), PI3Kγ

Q: `CC(C)S(=O)(=O)c1cc(-c2ccn3nc(N)c(C(=O)NC4CC4)c3n2)cc2c1C(=O)N([C@@H](C)C1CC1)C2` [Example 134, 2-Amino-N-cyclopropyl-5-{2-[(1S)-1-cyclopropylethyl]-1-oxo-7-(propane-2-sulfonyl)-2,3-dihydro-1H-isoindol-5-yl}pyrazolo[1,5-a]pyrimidine-3-carboxamide] was tested. Which pIC50 did it give?
A: Its pIC50 is over 7.00.
